By UniProt entry, the sequences of proteins in these tests, tags left out.
UniProt Q9HD36, whole entry: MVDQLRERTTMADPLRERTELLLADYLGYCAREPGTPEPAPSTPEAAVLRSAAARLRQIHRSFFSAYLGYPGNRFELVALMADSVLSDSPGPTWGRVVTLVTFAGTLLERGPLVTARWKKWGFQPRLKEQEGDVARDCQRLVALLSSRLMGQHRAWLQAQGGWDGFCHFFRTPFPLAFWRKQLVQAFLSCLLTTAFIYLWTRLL

Only a part is listed here, and it is no random draw. Some results for these compounds are left out of this collection, so the calls shown say nothing about other tests. The source made the active and inactive calls. Cut-off read from the data, not from the text of the source: active = inhibition above about 40%.
The compounds below were run against Bcl-2-like protein 10 (Homo sapiens) (UniProt Q9HD36) (assay: inhibitors of Bim-Bcl-B binding, primary screen, biochemical, multiplexed, human Bcl-2 family (AID 951;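 note: 0% = tracer peptide without compound and 100% = reference inhibitor peptide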)). Conditions: bead-based flow cytometry, Bim peptide-Bcl-B binding; at 10 µM; hits give high values.
In the case of `CN(C)c1cccc(C(=O)NCC2(N(C)C)CCCCC2)c1`, the inhibition is reported as inactive: -8%.
With `O=C(OC1CN2CCC1CC2)C(CO)(c1ccccc1)c1ccccc1` (centres undefined) the inhibition was inactive: -10%.
For `COc1cccc(C(=O)NCC2(N3CCCCC3)CCCCC2)c1`, the inhibition was inactive: -2%.
With `CCN1CCCC(OC(=O)C2(O)c3ccccc3C=Cc3ccccc32)C1` (centres undefined) the inhibition was inactive: -8%.
For `C=CCN1CCN(CCOC(=O)C(O)(c2ccccc2)c2ccccc2)CC1`, the inhibition was inactive: 1%.
`CN(C)C1CCCC1OC(=O)C(O)(c1ccccc1)c1ccccc1` (centres undefined) was tested, and the inhibition was inactive: -10%.
`Cc1ccccc1C(=O)NCC1(N2CCCCC2)CCCCC1` was tested, and the inhibition was inactive: 2%.
With `CC(C)N1C(=O)CC2(CCN(CCOC(=O)C(O)(c3ccccc3)c3ccccc3)CC2)C1=O` the inhibition was inactive: -1%.
`O=C(NCC1(N2CCCCC2)CCCCC1)c1cc([N+](=O)[O-])ccc1Cl` was tested, and the inhibition was inactive: 0%.
